Source: paper PMC4349585 (Journal of medicinal chemistry, 2015)

Test system: intraocular pressure (IOP), elevated IOP rat model
Test: IOP lowering on rat eyes after topical dosing
Type: in vivo, Brown Norway rats
Details: topical 50 μg (20 μL of […] solution), initial IOP ~ 28 mmHg

Compound: Cc1[nH]c2ncnc(-c3ccc(NC(=O)N(CCN(C)C)c4ccc(Cl)cc4)c(F)c3)c2c1C [Compound 18w, 1-(4-Chlorophenyl)-3-(4-(5,6-dimethyl-7H-pyrrolo[2,3-d]pyrimidin-4-yl)-2-fluorophenyl)-1-(2-(dimethylamino)ethyl)urea]
- IOP lowering effect compared to the vehicle: significant decreases in IOP were detected at 4 h
